# scFv variants of Ab-14 (light chain) against a SARS-CoV-2 spike peptide

Target peptide (SARS-CoV-2 spike, HR2 region): PDVDLGDISGINAS

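Phage display of a naive human antibody library on the peptide gave the parent. Designed CDR sequences, proposed from the first random library and measured here. Several design methods are mixed in this list. AlphaSeq pools MATa yeast showing the antibodies with MATalpha yeast showing the peptide. After mating in shaken culture at 30 °C for 16 h, diploids were selected and their barcode pairs sequenced. The ratio of observed to expected reads was calibrated, replicate by replicate, on BCL2-family standards whose Kd was known from biolayer interferometry. Mating was done six times.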

Parent: Ab-14, a human scFv built as VH, three GGGGS repeats, VL. Only the CDRs of the light chain vary.
VH: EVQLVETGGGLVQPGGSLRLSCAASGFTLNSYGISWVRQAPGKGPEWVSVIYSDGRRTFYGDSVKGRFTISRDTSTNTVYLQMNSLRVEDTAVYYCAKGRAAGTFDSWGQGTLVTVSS
VL: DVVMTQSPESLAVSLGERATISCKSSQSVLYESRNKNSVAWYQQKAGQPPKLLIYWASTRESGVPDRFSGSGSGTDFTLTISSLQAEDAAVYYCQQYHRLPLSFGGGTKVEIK

The parent's light chain CDRs are KSSQSVLYESRNKNSVA, WASTRES, QQYHRLPLS; each variant's own CDRs replace them letter for letter.
Scale: log10 of Kd in nM, estimated from mating counts; low values are strong binders.
A mean of the replicates is given; it leaves out those without a signal.
"nd" means that the variant was in the library but no mating with the target was seen in that replicate; the authors take this as a sign of poor binding, and no number exists.
In the paper, a design with two or fewer of six values counts as a poor binder.
Some sequences occur more than once in the pool; their replicates are listed entry by entry, parted by semicolons.
Three control strains display no target. For all light chain designs, 4% of the pairings with them gave a signal, with a median of 2.64 and one signal in twenty below 1.59, so weak values seen in few replicates may be background.
Values of this round are not directly comparable with the first-round values of the same sequences.

Variant KLSQSVLYESRNKNSVA | HASTREQ | QQYHRLPLS gave -0.13, -0.18, -0.44, -0.39, -0.39, -0.14 (mean -0.28).
Variant KSSQSVLYESRNSNSVA | GASTRED | QQYHRLPLS gave 0.56, 0.17, 0.26, 0.23, 0.22, 0.45 (mean 0.31).
Variant KSGCGVLYESRNKNSVA | GASTRES | QQYHRLPLS gave 0.08, 0.12, -0.13, -0.14, -0.10, 0.08 (mean -0.02).
Variant KLPMATMVESVSKNNVA | ELTTRGS | QQYNRLPLS gave 0.86, 0.87, 0.77, 0.75, 0.70, 0.61 (mean 0.76).
Variant KQSQSVLYDSRNKNSVA | EASTRES | QQYHRLPLS gave 0.34, 0.29, 0.12, -0.05, 0.10, 0.24 (mean 0.17).
Variant KLLQAVMNETRNRNNVA | HMTTRED | QQYHRLPLS gave 0.90, 0.51, 0.59, 0.58, 0.76, 0.67 (mean 0.67).
Variant KISMSYRYESQAKNSIA | EMTTRAE | QSYHRLPLS gave 0.80, 0.38, 0.54, 0.49, 0.34, 0.64 (mean 0.53).
Variant KVSVGGLYEQRQKNSVA | NASYRES | QQYHRLPLS gave 0.60, 0.05, 0.33, 0.00, -0.01, 0.27 (mean 0.21).
Variant KLMEQALYESRNKNSVA | QASTREM | QQYHRLPLS gave 0.79, 0.48, 0.16, 0.60, 0.56, 0.60 (mean 0.53).
Variant HSSQSVLYEGRNGNSVA | WASTRES | QQYQRLPLS gave nd, 1.44, nd, nd, nd, 1.53 (mean 1.48).
Variant KIQQSVLMESLNKNSVA | EASTRLD | QQYHRLPLS gave 0.23, 0.64, -0.14, 0.48, 0.20, 0.69 (mean 0.35).
Variant SLTAHVEEAKGAENSVA | EAVMLES | QQYHQLPLM gave 3.02, 1.30, 1.07, 0.94, 0.32, 0.69 (mean 1.22).
Variant KVSQSVLYEQRNKNSVA | EASQRES | QQYHRLPLS gave 0.33, -0.28, -0.16, -0.27, -0.10, -0.06 (mean -0.09).
Variant KFTISVLYESRNVNSVA | QASTRES | QQYSRLPLS gave 0.88, 0.41, 0.66, 0.62, 0.40, 0.68 (mean 0.61).
Variant KSSQFDMYESTNKNSVA | WASTRES | QEYHRLPLS gave nd, nd, nd, nd, nd, 2.25.
Variant MSSQSVLYESRNKNSVA | KASTRES | QQYHRLILS gave 1.35, 1.42, 1.36, 2.25, 1.48, 1.37 (mean 1.54).
Variant KSSQSVLYDSRNKNSVA | GASTRES | QQYHRLPLS gave nd, nd, nd, nd, nd, nd.
Variant KSSQSGWNESRNKNSVA | RAITRES | QQYHRLPLS gave 1.48, 3.47, 2.01, 1.42, 2.50, 1.67 (mean 2.09).
Variant RISASVNYEMVNGQSVA | QMSTREE | QQYDRLPLS gave 0.80, 1.31, 0.99, 0.67, 0.67, 0.98 (mean 0.90).
Variant KSSQSVLYDSRNKNSVA | GASTRES | QSYHRLPLS gave 0.34, 0.22, 0.07, 0.01, 0.14, 0.38 (mean 0.19).

Further variants, results first:

Read-out 0.12, -0.25, -0.23, -0.02, -0.03, -0.02 (mean -0.07), from KLSQSVLYESRMKNNVA | GASTRES | QQYHRLPLS.
Read-out 0.10, 0.07, -0.17, -0.21, -0.14, -0.01 (mean -0.06), from KIQPHLSQSFASKNNIA | DRVLSAE | QQYNRLPLV.
Read-out nd, 1.91, nd, nd, nd, nd, from KASQSVLYMSRNKNSVA | WASTRYS | QQYYTLPLS.
Read-out 1.49, 1.72, 1.31, 0.99, 1.14, 1.34 (mean 1.33), from KLRQSMEYESRNKNSVA | WASTRLS | QQYHRLPLS.
Read-out -0.24, -0.08, -0.39, -0.31, -0.29, -0.24 (mean -0.26), from KMSQEAMMLSRNPNSVA | QASTREQ | QQYHRLPLS.
Read-out -0.06, -0.22, -0.23, -0.34, -0.10, -0.05 (mean -0.17), from ILSQSVLDESRNKNSVA | DASTRES | QQYHRLPLS.
Read-out 1.19, 0.84, 0.35, 0.59, 1.34, 0.90 (mean 0.87), from MAYGGDMLESVTRNSVA | NAETRVD | QDYHRLPLS.
Read-out 0.64, 0.71, 0.70, 0.07, 0.33, 0.29 (mean 0.46), from KLQQFYEGESRNKNSVA | SASTRRS | QQYHRLPLS.
Read-out 0.59, 0.77, 0.68, 0.39, 0.83, 0.98 (mean 0.71), from KLQQSQEYESRNKNSVA | HASTRLS | QQYHRLPLS.
Read-out 0.18, 0.12, 0.14, 0.00, -0.03, 0.17 (mean 0.10), from KLSQSVLYESRNKNSVA | NASTRYQ | QQYHRLPLS.
Read-out -0.02, -0.32, -0.29, -0.28, -0.11, -0.12 (mean -0.19), from KFSQQVLYESRVKNSVA | NASQRLE | QQYHRLPLS.
Read-out 0.98, 1.15, 0.63, 0.61, 1.10, 1.14 (mean 0.93), from KLLQSVLLESRNDNSVA | NASTREL | AQYHRLPLS.
Read-out nd, 2.23, 2.10, 1.49, 2.61, 1.88 (mean 2.06), from KTSQGVLYESRNANSVA | WASTRES | QQYHRLPLS.
Read-out -0.29, -0.32, -0.37, -0.50, -0.32, 0.02 (mean -0.30), from HLSDSVLYESRNKNSVA | NASTRES | QQYHRLPLM.
Read-out 2.41, 1.93, nd, 1.24, 2.12, 1.76 (mean 1.89), from KSSQSVLYESRNKNSVA | AAQTREV | QQYHRLPLF.
Read-out 1.15, 1.35, 0.97, 0.35, 1.07, 1.51 (mean 1.07), from TISMHTSLFSQTINNVA | EVSTREN | QQYDRLPLM.
Read-out nd, nd, 3.40, nd, nd, 2.24 (mean 2.82), from KLREQSHVESKQKNNVA | DNSTRES | QDYHRLPLS.
Read-out -0.05, -0.15, -0.21, -0.20, -0.04, -0.05 (mean -0.12), from KISQSVLYESRTKNSVA | NAVTRET | QQYHRLPLS.
Read-out -0.05, -0.06, 0.10, -0.24, -0.14, 0.40 (mean 0.00), from KLSQSVQYESRNKNSVA | NASTRMS | QQYHRLPLS.
Read-out 0.34, 0.16, 0.41, -0.04, 0.30, 0.37 (mean 0.26), from KLDQSVEEKSRNKNSVA | EASTRES | QDYHRLPLS.
Read-out nd, 1.12, nd, nd, nd, nd; 1.15, 1.28, 0.88, 1.21, 0.28, 1.31; nd, nd, nd, nd, nd, nd; 1.59, nd, nd, nd, 1.97, 3.23; 2.73, nd, 2.42, 2.23, nd, 1.10 (mean 1.61), from KSMQSVFYESENKNSVA | WASTRES | QQYHRLPLP.

Data: MIT Lincoln Laboratory AlphaSeq set, Li et al. 2023, doi:10.1038/s41467-023-39022-2, as distributed in FLAb.